This data set in a line: Surfactant stability: change in lauric acid concentration of surfactant solutions after 65 C for 1 month vs baseline (HPLC/MS/MS). It is filed as physicochemical. The conditions noted are these: 5.0% Cocamidopropyl Betaine + 5.0% anionic surfactant, 65 C 1 month. The method, then: Lowering the personal care composition's pH is a key driver of hydroxy acid delivery to the hair and the skin under the hair. However, lowering pH reduces the options of suitable anionic surfactants free-of sulfates as many are susceptible to hydrolysis. Therefore, surfactant stability is analyzed by measuring the change in lauric acid concentration of surfactant solutions after exposure to high temperature (65 C) for 1 month and at range of pH vs. baseline conditions (surfactant solutions as made at ambient temperature of about 25 C). As shown in the table below, the Taurate surfactants are less susceptible to degradation at lower pH and (rows 8-10, 17-21 and 30-33) vs. other common amino acid based anionic surfactants (Sarcosinate, Alaninate, Glutamate, Glycinate, and Isethionate).
Approximately 10 mg of each sample is weighed into a vial and 10 mL of isopropanol (IPA) added and mixed. An aliquot of the diluted sample (0.1 mL) is then transferred into an autosampler vial containing stable-isotope-labeled (D23 lauric acid) internal standard (ISTD) and diluent (85/15 IPA/water, 0.9 mL). A set of lauric acid standards is prepared over an appropriate calibration range in diluent and spiked with ISTD. The standards and samples are analyzed using gradient reversed-phase high performance liquid chromatography with tandem mass spectrometry (HPLC/MS/MS). Lauric acid and the ISTD are monitored by negative ion electrospray (ESI) using “pseudo” selected reaction monitoring (i.e., a precursor-to-precursor transition with no mass loss). A standard curve is constructed by plotting the peak area ratio (peak area lauric acid/peak area ISTD) for each standard versus lauric acid concentration. The amount of lauric acid in the calibration standards and diluted samples is back-calculated using the generated regression equation. The result is reported as the mass of lauric acid per g of sample (% Lauric Acid).

Several values for one entry are separate records, joined by “and”; a condition that tells them apart may be missing. Equal entries are not always repeated.

Disodium cocoyl glutamate: the “Delta % lauric acid/Anionic Surfactant Conc.” value by setting is: (pH 5.2) 2.943% and 2.308% and 3.907%; (pH 5.8) 2.527%; (pH 6.5) 0.516%.

Values taken from patent US20240299275A1, “HYDROXY ACIDS FOR SCALP AND HAIR IN SULFATE FREE PERSONAL CARE COMPOSITIONS” (The Procter & Gamble Company, priority 2023, published 2024).
